Experimental data: article PMC8563902, “N^1-methyladenosine methylation in tRNA drives liver tumourigenesis by regulating cholesterol metabolism” (Nature Communications, 2021)

Sequences of proteins named here, by UniProt entry; tags and fusion partners are left off. A change or cut given only in a name is not applied to a line headed by its entry. Residues count along the entry.
UniProt Q96FX7, 2-289: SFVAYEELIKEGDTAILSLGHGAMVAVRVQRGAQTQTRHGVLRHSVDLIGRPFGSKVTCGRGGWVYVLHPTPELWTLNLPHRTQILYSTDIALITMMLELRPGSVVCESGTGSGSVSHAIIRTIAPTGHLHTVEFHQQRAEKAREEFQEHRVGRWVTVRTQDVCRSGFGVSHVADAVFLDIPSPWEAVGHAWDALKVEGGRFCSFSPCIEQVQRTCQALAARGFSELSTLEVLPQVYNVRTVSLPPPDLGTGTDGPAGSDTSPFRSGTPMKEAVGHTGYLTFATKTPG
UniProt Q9UJA5: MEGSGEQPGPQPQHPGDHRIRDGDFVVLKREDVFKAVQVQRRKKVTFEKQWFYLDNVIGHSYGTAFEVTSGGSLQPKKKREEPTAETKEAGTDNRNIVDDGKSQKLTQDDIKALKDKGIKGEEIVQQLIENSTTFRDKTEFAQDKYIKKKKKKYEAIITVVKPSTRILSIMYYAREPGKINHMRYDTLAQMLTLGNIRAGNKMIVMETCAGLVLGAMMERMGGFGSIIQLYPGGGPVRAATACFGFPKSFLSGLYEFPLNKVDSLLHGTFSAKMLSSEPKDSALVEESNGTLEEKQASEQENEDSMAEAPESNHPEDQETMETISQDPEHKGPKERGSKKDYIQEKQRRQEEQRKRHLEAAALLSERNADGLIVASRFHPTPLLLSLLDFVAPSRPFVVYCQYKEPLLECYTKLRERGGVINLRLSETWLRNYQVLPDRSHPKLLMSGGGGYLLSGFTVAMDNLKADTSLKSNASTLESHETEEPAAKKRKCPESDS

Molecular target: TRMT6/TRMT61A complex (Homo sapiens, UniProt Q96FX7+Q9UJA5)
Test: screen for block of TRMT6/TRMT61A interaction in vitro; m1A by LC-MS/MS in treated PLC/PRF/[…] cells
Conditions: blocks subunit interaction (method not described); m1A read in cells treated at the proliferation IC50

SMILES: C[CH2][Hg][S]c1ccccc1C(=O)O [thimerosal]
- screen for block of TRMT6/TRMT61A interaction in vitro; m1A by LC-MS/MS in treat: candidate inhibitors against the interaction of TRMT6 and TRMT61A
